# TDP1 inh = blocks human tyrosyl-DNA phosphodiesterase 1 | recombinant TDP1, AlphaScreen DNA substrate cleavage | 350,000 compounds, 0.28% hits | AID 485290 | Q9NUW8 | Potency, µM (highest dose often 130 µM), for the others: top-dose activity change, negative = inhibition, actives largely listed as inhibitors; further: potency means the concentration at half of the fitted maximal effect; on the % scale 0 is the no-effect control and ±100 the full control effect; nearly all actives have a fitted effect of over 40% in size
#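 Recombinant human Tdp1 (E. coli-expressed, 1 nM final) preincubated with compounds 15 min at room temperature, then 5'-biotin/3'-phosphotyrosine-FITC DNA substrate (15 nM final) added for 5 min. AlphaScreen beads (10 ug/ml final) added 10 min; cleavage lowers signal.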
# TDP1 cell noCPT = qHTS for Inhibitors of human tyrosyl-DNA phosphodiesterase 1 (TDP1): qHTS in cells in absence of CPT. DT40 Tdp1-/- hTDP1 cells, no CPT, ATP luminescence, 48 h. Potency, µM (top dose mostly 46.2 µM), for inactives: at the highest dose activity change, negative = growth inhibition, most hits filed as inhibitors. 420,000 compounds, 15% hits; further: potency means the concentration at half of the fitted maximal effect; on the % scale 0 is the no-effect control and ±100 the full control effect; nearly all actives have a fitted effect of over 55% in size
#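 Readout: luminescence from CellTiter-Glo after 30 min in the dark at RT. Cells: DT40 Tdp1-/- with stable hTDP1, 400/well. Exposure: compounds alone, ≥48 hr, 37 °C.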
# uPA surface inh = cell surface uPA generation inhibition; 330,000 compounds, 0.31% hits; cell surface uPA generation assay, qHTS; Potency, µM (doses to about 38.3 µM), without a hit: at the highest dose activity change, negative = inhibition, actives largely listed as inhibitors; active means well fitted inhibition curve with a large enough effect; inconclusive means small, poorly fitted or top-dose-only effect; inactive means no such curve, though single readings can be large or run the other way; tested in mouse RAW 264.7 cells; further: potency means the concentration at half of the fitted maximal effect; on the % scale 0 is the no-effect control and ±100 the full control effect; nearly all actives have a fitted effect of over 55% in size
# DT40 TDP1 CPT = DT40-hTDP1 cell growth loss with CPT. chicken DT40 Tdp1-/-;hTDP1 cells + 20 nM CPT, ATP luminescence, 48 h. Potency, µM (series often up to 46.2 µM), without a hit: top-dose activity change, negative = growth inhibition, most hits filed as inhibitors. 420,000 compounds, 12% hits; further: potency means the concentration at half of the fitted maximal effect; on the % scale 0 is the no-effect control and ±100 the full control effect; nearly all actives have a fitted effect of over 55% in size
#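 Chicken DT40 Tdp1-/- cells stably complemented with human TDP1 were seeded at 400 cells/well in medium containing 20 nM camptothecin, exposed to pin-transferred compounds, and grown at 37 °C for at least 48 hr. Viability was read as ATP luminescence.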
# miR-21 reporter = miR-21 reporter, rising signal; Potency, µM (doses to about 38.3 µM), without a hit: at the top dose reporter change, positive = more light; HeLa miR-21 FLuc reporter, luciferase, 48 h; 340,000 tested, under 10 active; active = well fitted rising curve with a large enough effect; inconclusive = small, poorly fitted or top-dose-only effect; inactive = no such curve, though single readings can be large or run the other way;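 further: % of control where 0% means no effect; miR-21 action dims this reporter so a rising signal means less miR-21 action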
#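 Using DMEM plus 10% FBS, HeLa miR-21-FLuc cells are incubated with test compounds (final up to about 40uM) for 48 hours; firefly luciferase signal is then imaged following reagent-mediated lysis.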
# The depositor's hits bear a star; ? = inconclusive; · = not tested or not shown; [ ] = another dose, or the depositor's remark. This is a sample that favours compounds with a hit; in the whole collection about 16% have one here. Unless noted, the call rests on the fitted dose curve; in most records, active means well fitted curve in the direction sought with a large enough effect; inconclusive means small, poorly fitted or top-dose-only effect, or another doubt; inactive means no such curve, though single readings can be large; an effect the other way counts as inactive or inconclusive.
item	SMILES	TDP1 inh	TDP1 cell noCPT	uPA surface inh
1	O=C(Cc1cscn1)c1ccc(O)cc1O	9.5%	-20.8%	3.3%
2	CCN(C(=O)c1cccnc1SC)C12CC3CC(CC(C3)C1)C2	5.9%	20.6µM*	2.5%
3	CCOC(=O)C(Cc1ccccc1)C(=O)Nc1ccc(N(CC)CC)cc1 (centres undefined)	5.3%	?	-1.9%
4	CC1C/C(=C/c2cccn2C)C(=O)/C(=C/c2cccn2C)C1 (centres undefined)	14.7%	23.1µM*	-10.8%
5	Cn1cccc1/C=C1/SC(=S)N(CC(=O)O)C1=O	-8.1%	-10.4%	-11.3%
6	CC1C/C(=C/c2ccncc2)C(=O)/C(=C/c2ccncc2)C1 (centres undefined)	6.2%	0.581µM*	3.55µM*
7	Fc1cccc(Cl)c1CSc1nnc(-c2ccncc2)o1	·	-9.2%	5.1%
8	O=C(c1cc(COc2ccc(F)c(F)c2)on1)N1CCN(C/C=C/c2ccccc2)CC1	·	25.9µM*	7.9%
9	COc1cc(Cl)ccc1OCc1cc(C(=O)N2CCN(C)CC2)no1	6.5%	-2.2%	-5.2%
10	Cc1cccc(C)c1OCc1cc(C(=O)N2CCN(C3CCCC3)CC2)no1	3.2%	?	-4.0%

item	DT40 TDP1 CPT	miR-21 reporter
1	1.6%	-5.5%
2	?	14.3%
3	-0.4%	-3.2%
4	23.1µM*	7.6%
5	0.1%	-15.7%
6	0.651µM*	?
7	-11.2%	-67.3%
8	?	-5.7%
9	-21.3%	-7.6%
10	?	-27.4%

# Continued:
item	SMILES	TDP1 inh	TDP1 cell noCPT	uPA surface inh
11	COc1ccc(OCc2cc(C(=O)N3CCC(OC)CC3)no2)c2ccccc12	9.5%	14.6µM*	3.8%
12	CCCN1CCN(C(=O)c2cc(COc3ccc(F)c(F)c3)on2)CC1	4.4%	0.6%	-11.2%
13	COCC1CCN(C(=O)c2cc(COc3ccc(OC)c4ccccc34)on2)C1 (centres undefined)	·	?	5.8%
14	O=C(c1cc(COc2ccc(F)cc2Cl)on1)N1CCN(C2CCCC2)CC1	3.9%	?	-5.9%
15	COc1cc(Cl)ccc1OCc1cc(C(=O)N2CCN(C3CCCCC3)CC2)no1	·	23.1µM*	·
16	CCCNC(=O)NC(=O)CSc1nc2ccccc2c(=O)n1Cc1ccncc1	4.6%[56.1 µM]	-21.0%	2.7%
17	COCCC1CCCCN1C(=O)c1cccc(OC2CCN(S(C)(=O)=O)CC2)c1 (centres undefined)	1.3%	2.0%	-5.8%
18	O=C(c1cc(COc2c(F)cccc2F)on1)N1CCN(C2CCCCC2)C(=O)C1	-0.4%	?	-3.8%
19	O=C(c1cc(COc2ccc(F)cc2Cl)on1)N1CCN(C2CCCCC2)C(=O)C1	1.1%	7.31µM*	-21.3%
20	O=C(c1cc(COc2ccc(F)c(F)c2)on1)N1CCN(C2CCCCC2)C(=O)C1	-0.3%	23.1µM*	-5.1%

item	DT40 TDP1 CPT	miR-21 reporter
11	23.1µM*	-49.2%
12	-27.0%	-34.9%
13	?	·
14	18.4µM*	-13.5%
15	?	·
16	-24.8%	2.5%
17	-0.4%	-4.9%
18	?	-0.9%
19	10.3µM*	4.7%
20	?	-11.1%

# 3 of these compounds in another layout.
(15) COc1cc(Cl)ccc1OCc1cc(C(=O)N2CCN(C3CCCCC3)CC2)no1
(18) O=C(c1cc(COc2c(F)cccc2F)on1)N1CCN(C2CCCCC2)C(=O)C1
(19) O=C(c1cc(COc2ccc(F)cc2Cl)on1)N1CCN(C2CCCCC2)C(=O)C1

Assay by compound	15	18	19
TDP1 inh	·	-0.4%	1.1%
TDP1 cell noCPT	23.1µM*	?	7.31µM*
uPA surface inh	·	-3.8%	-21.3%
DT40 TDP1 CPT	?	?	10.3µM*
miR-21 reporter	·	-0.9%	4.7%

# Continued:
item	SMILES	TDP1 inh	TDP1 cell noCPT	uPA surface inh
21	CCN1CCN(C(=O)c2cc(COc3ccc(F)c(F)c3)on2)[C@@H](C)C1=O	·	20.6µM*	·
22	CSc1ccc(/C=C(/Sc2nnc(-c3ccccc3)o2)C(=O)O)cc1	2.7%	-29.7%	0.3%
23	Cc1c(Cl)ccc2c(C(=O)NC(C)c3ccncc3)cc(-c3ccncc3)nc12 (centres undefined)	-2.7%	·	·
24	CN(C)CCNC(=O)c1cc2c(s1)-c1ccc(Cl)cc1SC2	·	8.2µM*	18.2%
25	CN(C(=O)c1cc2c(s1)-c1ccc(Cl)cc1SC2)c1cccc(C(F)(F)F)c1	0.0%	16.4µM*	·
26	CC1CCC(C(=O)NC(C(=O)Nc2ccccn2)C(C)C)CC1 (centres undefined)	8.4%	?	2.0%
27	CCSC1=NC2(CCN(C(=O)NC3CCCCC3)CC2)N=C1c1ccc(OC)cc1	3.2%	?	·
28	COCCN1CCN(C(=O)c2cc(COc3ccc(F)c(F)c3)on2)CC1	-2.1%	-15.3%	2.2%
29	O=C(c1cc(COc2ccc(-n3cncn3)cc2)on1)N1CCCC1	·	-21.4%	8.9%

item	DT40 TDP1 CPT	miR-21 reporter
21	14.6µM*	·
22	6.9%	-1.5%
23	·	-12.2%
24	2.59µM*	?
25	14.6µM*	-13.4%
26	-24.3%	-2.0%
27	?	29.4%
28	-4.7%	-23.5%
29	-19.5%	·
